Measured values from patent US20230051872A1, “Multivalent D-Peptidic Compounds for Target Proteins” (Reflexion Pharmaceuticals, Inc., priority 2019, published 2023).

Amino acid sequences for entries named in this document (tags omitted). Residues count along the entry.
UniProt Q15116, 25-167 limits assumed: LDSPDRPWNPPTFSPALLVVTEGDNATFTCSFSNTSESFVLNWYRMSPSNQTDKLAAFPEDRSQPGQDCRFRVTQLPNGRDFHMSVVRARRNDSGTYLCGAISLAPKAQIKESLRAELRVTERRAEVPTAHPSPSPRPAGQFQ

Tests used:
PD-1 [1] = target: T1, PD-1 (Homo sapiens, UniProt Q15116); experiment: Surface plasmon resonance (SPR) binding affinity to PD-1; set-up: purchased R&D Systems 1086-PD-050; conditions: Table 2, variant D-peptidic domains, target protein PD-1
PD-1 [2] = target: T1, PD-1; experiment: PD-1 blocking ELISA (PD-1-Fc binding to PD-L1-Fc); set-up: purchased R&D Systems 1086-PD-050 (PD-1-Fc); 156-B7-100 (PD-L1-Fc); conditions: biotinylated PD-1-Fc, PD-L1-Fc coated plate

| SMILES | Binding Affinity KD (nM) (PD-1 [1]) | inhibition of PD-1 binding to PD-L1 (PD-1 [2]) | inhibition of PD-1 binding to PD-L1 (PD-1 [2]; listed as RFX-977296) |
| --- | --- | --- | --- |
| CC[C@@H](C)[C@@H](NC(=O)CNC(=O)[C@@H](C)NC(=O)[C@@H](CCCCN)NC(=O)[C@@H](CCCCN)NC(=O)[C@@H](CC(C)C)NC(=O)[C@@H](CCC(=O)O)NC(=O)[C@@H](C)NC(=O)[C@H](NC(=O)[C@@H](C)NC(=O)[C@@H](CC(=O)O)NC(=O)[C@@H](CCC(=O)O)NC(=O)[C@@H](CCCCN)NC(=O)[C@@H](C)NC(=O)[C@@H](CC(N)=O)NC(=O)[C@@H](CCCCN)NC(=O)[C@@H](CC(C)C)NC(=O)[C@@H](CC(C)C)NC(=O)[C@@H](Cc1c[nH]c2ccccc12)NC(=O)[C@@H](CCC(N)=O)NC(=O)[C@@H](CC(=O)O)NC(=O)[C@H](NC(=O)[C@H](N)[C@H](C)O)[C@H](C)CC)[C@H](C)CC)C(=O)N[C@@H](C(=O)N[C@H](CO)C(=O)N[C@H](CC(=O)O)C(=O)N[C@H](Cc1ccccc1)C(=O)N[C@H](Cc1ccc(O)cc1)C(=O)N[C@H](Cc1ccccc1)C(=O)N[C@H](CC(N)=O)C(=O)N[C@H](C)C(=O)N[C@@H](C(=O)N[C@H](CC(N)=O)C(=O)N[C@H](CCCCN)C(=O)N[C@H](C)C(=O)N[C@H](CCCCN)C(=O)N[C@@H](C(=O)N[C@@H](C(=O)N[C@H](CCC(=O)O)C(=O)N[C@H](CCC(=O)O)C(=O)N[C@@H](C(=O)N[C@H](CC(N)=O)C(=O)N[C@H](C)C(=O)N[C@H](CC(C)C)C(=O)N[C@H](CCCCN)C(=O)N[C@H](CC(N)=O)C(=O)N[C@H](CCC(=O)O)C(=O)N[C@@H](C(=O)N[C@H](CC(C)C)C(=O)N[C@H](CCCCN)C(=O)N[C@H](C)C(=O)N[C@H](Cc1c[nH]cn1)C(=O)N[C@H](C)C(=O)O)[C@H](C)CC)C(C)C)C(C)C)[C@H](C)O)[C@H](C)CC)[C@H](C)O [GA domain wt, tidqwllknakedaiaelkkaGitsdfyfnainkaktveevnalkneilkaha, reference compound] | No |  |  |
| CC[C@@H](C)[C@@H](NC(=O)CNC(=O)[C@@H](C)NC(=O)[C@@H](CCCCN)NC(=O)[C@@H](CCCCN)NC(=O)[C@@H](CC(C)C)NC(=O)[C@@H](CCC(=O)O)NC(=O)[C@@H](C)NC(=O)[C@H](NC(=O)[C@@H](C)NC(=O)[C@@H](CC(=O)O)NC(=O)[C@@H](CCC(=O)O)NC(=O)[C@@H](CCCCN)NC(=O)[C@@H](C)NC(=O)[C@@H](CC(N)=O)NC(=O)[C@@H](CCCCN)NC(=O)[C@@H](CC(C)C)NC(=O)[C@@H](CC(C)C)NC(=O)[C@@H](Cc1c[nH]c2ccccc12)NC(=O)[C@@H](CCC(N)=O)NC(=O)[C@@H](CC(=O)O)NC(=O)[C@H](NC(=O)[C@H](N)[C@H](C)O)[C@H](C)CC)[C@H](C)CC)C(=O)N[C@@H](C(=O)N[C@H](CO)C(=O)N[C@H](CC(=O)O)C(=O)N[C@H](CC(C)C)C(=O)N[C@H](Cc1ccc(O)cc1)C(=O)N[C@H](Cc1ccccc1)C(=O)N[C@H](CC(N)=O)C(=O)N[C@H](Cc1c[nH]c2ccccc12)C(=O)N[C@@H](C(=O)N[C@H](CC(N)=O)C(=O)N[C@@H](C(=O)N[C@H](C)C(=O)NCC(=O)N[C@H](CO)C(=O)N[C@@H](C(=O)N[C@H](CO)C(=O)N[C@H](CO)C(=O)N[C@@H](C(=O)N[C@H](CC(N)=O)C(=O)N[C@H](Cc1ccccc1)C(=O)N[C@H](Cc1c[nH]cn1)C(=O)N[C@H](CCCCN)C(=O)N[C@H](CC(N)=O)C(=O)N[C@H](Cc1ccc(O)cc1)C(=O)N[C@@H](C(=O)N[C@H](CC(C)C)C(=O)N[C@H](CCCCN)C(=O)N[C@H](C)C(=O)N[C@H](Cc1c[nH]cn1)C(=O)N[C@H](C)C(N)=O)[C@H](C)CC)C(C)C)C(C)C)C(C)C)[C@H](C)CC)[C@H](C)O [Compound 977296, tidqwllknakedaiaelkkaGitsdlyfnwinvaGsvssvnfhknyilkaha] |  | no detectable inhibition | failed to block |
